Apparent affinities of Ab-14 variants for a coronavirus HR2 peptide

Reference: Engelhart et al. 2022, doi:10.1038/s41597-022-01779-4. File: FLAb, binding data.

Antigen: PDVDLGDISGINAS, a 14-residue peptide of the SARS-CoV-2 spike HR2 region.

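The starting antibody came from a phage panning campaign against this peptide. Variants in AAYL50 differ from the parent at up to three CDR positions; double and triple changes were sampled at random. The scFvs were displayed on barcoded MATa yeast, the peptide on MATalpha yeast. Binding brings cells together so that they mate, and sequencing counts the barcode pairs among the diploids. Each replicate has its own calibration line, from reference interactions of the BCL2 family. There are three technical replicates.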

The variants keep the heavy chain, the linker and the frameworks of Ab-14 (scFv order VH, the linker GGGGSGGGGSGGGGS, VL).
VH: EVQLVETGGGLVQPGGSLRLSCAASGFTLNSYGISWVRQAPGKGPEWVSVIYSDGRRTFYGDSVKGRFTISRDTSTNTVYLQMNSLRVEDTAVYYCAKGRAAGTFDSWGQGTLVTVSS
VL: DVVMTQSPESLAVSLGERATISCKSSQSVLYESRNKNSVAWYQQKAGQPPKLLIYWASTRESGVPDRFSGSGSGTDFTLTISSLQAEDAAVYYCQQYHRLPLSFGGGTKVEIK

Variants are written as CDR1, CDR2 and CDR3 of the light chain (limits as in the source). Parent: KSSQSVLYESRNKNSVA, WASTRES, QQYHRLPLS. Affinities are written as log10 Kd with Kd in nM; a lower number is a better binder. Averages over replicates are reported, and they cover detected replicates only. An entry "n.d." has no value in the source: the pair was not observed among the diploids in that replicate. This suggests poor binding but is not conclusive. For reference, the parent read 0.65 as the reference entry and 1.68 as a member of this library. Nonspecific signal, from three strains lacking the peptide, appeared in 18% of pairings of library AAYL50, centred on 4.19 (5% of these signals below 2.99); values are not corrected for it. For each scFv, signals with the empty controls are counted beside the result, with their mean in brackets.

CDR-L1,CDR-L2,CDR-L3,"log10 Kd, replicates",mean log10 Kd (nM),empty controls
KSSQSVLYESRNKNSVA,WASTRES,QQYHRLPMS,1.78 / 1.94 / 2.16,1.96,1 of 9 (3.26)
KSSQSHLYVSREKNSVA,WASTRES,QQYHRLPLS,1.52 / 1.91 / 2.31,1.91,0 of 9
QSSQSVLYESRNKNSVA,WPSTRES,QQPHRLPLS,n.d. / n.d. / n.d.,n.d.,0 of 9
KSSQSVLYESRNGNSVA,WASTRES,EQYLRLPLS,n.d. / n.d. / n.d.,n.d.,3 of 9 (3.70)
KSSQEVLYESRNKNSVA,WAPTRES,QQYHQLPLS,n.d. / 3.57 / 5.96,4.76,5 of 9 (4.71)
KSSQSVLYESRNKNTVA,WASTREH,QQYHRLPSS,3.10 / n.d. / n.d.,3.10,3 of 9 (4.80)
KSSQSVLYESRKKNSEA,WASTRCS,QQYHRLPLS,n.d. / n.d. / n.d.,n.d.,0 of 9
KSSQQVLYESRNKNSVD,WASTRES,QIYHRLPLS,n.d. / n.d. / n.d.,n.d.,0 of 9
KSSQSVLYESRNKNSVA,WASTRES,NQYHRMPLK,n.d. / n.d. / n.d.,n.d.,0 of 9
KSSASVIYESRNKNSVA,WASTRES,QQYHRLPLR,3.48 / 2.46 / 3.06,3.00,2 of 9 (3.77)
KSSQYCLYESRNKNGVA,WASTRES,QQYHRLPLS,3.59 / 3.87 / n.d.,3.73,1 of 9 (3.99)
KSSQSVLYEFRNKNSVA,WASTRES,QQYVRLPLS,2.10 / 1.98 / 1.86,1.98,2 of 9 (4.40)
KSSQSVLYESRGKNSVI,IASTRES,QQYHRLPLS,n.d. / n.d. / n.d.,n.d.,0 of 9
KWSQSVLYESRNKNSVA,WASTRES,QQYCRSPLS,n.d. / 3.80 / n.d.,3.80,1 of 9 (3.89)
KSSQSVLYESRNHNSVA,WASTRES,QEYHRLPLS,2.05 / 1.85 / 2.12,2.01,0 of 9
KSSTSVLYESRNKNSVA,GASTRLS,QQYHRLPLS,0.00 / 0.36 / 0.28,0.21,1 of 9 (4.69)
KSSQSVLYESRNKNSVV,WASTRES,QQYHRLPLS,n.d. / 5.02 / n.d.,5.02,5 of 9 (4.13)
KSSVSVLYESRNKNSVA,WVTTRES,QQYHRLPLS,2.12 / 2.27 / 2.61,2.33,1 of 9 (4.69)
KSSQSVMYESRNKNSVA,TASTRES,QQAHRLPLS,0.81 / 0.72 / 0.85,0.79,0 of 9
KSSQSVLYESRNKNSVA,WASTRES,QCYERLPLS,1.49 / 1.69 / 1.82,1.67,3 of 9 (4.74)
KSSQSVLYESRNKNSVA,WASTRES,QQYHMLDRS,n.d. / n.d. / n.d.,n.d.,0 of 9
KSSQSVLYESRNKNSVA,WASTRES,QRYHRLPLS,1.98 / 1.96 / 2.07,2.00,0 of 9
KSSQSVLYESANKNDVA,WASTRES,QQYHRTPLS,1.09 / 1.21 / 1.28,1.19,2 of 9 (3.88)
KSSQSHLYESRKKNSVA,WASTRES,QQYHRLPLL,n.d. / n.d. / n.d.,n.d.,1 of 9 (2.61)
KSSQCVLYESRNKNSVA,WAVERES,QQYHRLPLS,3.73 / 3.81 / 3.30,3.61,2 of 9 (4.63)
KSSQSVLYESRRKNSCA,WASTRES,QVYHRLPLS,4.86 / n.d. / n.d.,4.86,1 of 9 (3.96)
KSSQSVLYESRNKNSVL,WASTGEP,QQYHRLPLS,n.d. / n.d. / n.d.,n.d.,0 of 9
KSSASVLYESRNKGSVA,WASTRES,QQYHLLPLS,0.88 / 1.24 / 1.17,1.09,1 of 9 (3.01)
KSSQSVLYESRNKNSVA,WGSTRES,QQYYRLPLH,0.39 / 0.81 / 0.55,0.58,1 of 9 (4.04)
KSSQSVLYESRNKNSVA,WASTRES,KKYHRLPFS,1.59 / 1.56 / 2.01,1.72,0 of 9
KSAQSVLYEERNKNSVA,WAITRES,QQYHRLPLS,2.15 / 2.65 / 2.96,2.59,0 of 9
KSSQSVLYESRYKNSVA,WASTRAS,QQYHRLPIS,1.15 / 1.13 / 1.54,1.27,1 of 9 (4.19)
KSSNSVLYESRNKNSVM,WASTREG,QQYHRLPLS,n.d. / 3.02 / n.d.,3.02,3 of 9 (3.80)
KSSQSVLYESRNKNSVA,WASNRES,QQRHRLPLS,3.56 / 4.43 / 5.98,4.66,4 of 9 (3.87)
KSSQSILYEIRNKNSVA,WASTRES,QQYWRLPLS,4.42 / 4.41 / 3.36,4.07,2 of 9 (5.30)
KSSGSVLYESRNKNSVA,WASTRES,DQYHRLPLS,n.d. / n.d. / 2.68,2.68,0 of 9
KSSQSVLYESRNKNCVA,WASTRTS,QQYHRVPLS,n.d. / n.d. / n.d.,n.d.,0 of 9
KSSQSVLYEDRNKNSVA,WASTAES,QQYHRLPLT,4.77 / 4.08 / n.d.,4.42,2 of 9 (4.34)
KSSQWVLHESRNKNSVA,WFSTRES,QQYHRLPLS,n.d. / n.d. / n.d.,n.d.,4 of 9 (3.90)
KSSISVLYESRNKNDVA,WAHTRES,QQYHRLPLS,3.87 / 4.09 / 6.45,4.80,5 of 9 (4.60)

A selection of 4 entries from above:

CDR-L1,CDR-L2,CDR-L3,"log10 Kd, replicates",mean log10 Kd (nM),empty controls
KSSQSVLYESRNKNSVV,WASTRES,QQYHRLPLS,n.d. / 5.02 / n.d.,5.02,5 of 9 (4.13)
KSSQEVLYESRNKNSVA,WAPTRES,QQYHQLPLS,n.d. / 3.57 / 5.96,4.76,5 of 9 (4.71)
KSSQSHLYESRKKNSVA,WASTRES,QQYHRLPLL,n.d. / n.d. / n.d.,n.d.,1 of 9 (2.61)
KSSTSVLYESRNKNSVA,GASTRLS,QQYHRLPLS,0.00 / 0.36 / 0.28,0.21,1 of 9 (4.69)